Test results taken from patent publication US20110251230A1, “THERAPEUTICS FOR NEUROLOGICAL DISORDERS” (UNIVERSITY OF SHEFFIELD, priority 2008, published 2011).

Experiments:
[1] = test system: 1321N1 (human) astrocytic line
[2] = test system: NSC34 mouse motor neuronal cells

For 3-alpha-hydroxygedinin, the “Lowest dose with toxicity” value [1] was “none”, the “Lowest dose with toxicity” value (C6 (rat) astrocytic line) was “none” and the “Lowest dose with toxicity” value [2] was 10 µM.
